Here are results for five compounds from ChEMBL document CHEMBL1153304, “2,4-Diaminopyridine delta-opioid receptor agonists and their associated hERG pharmacology” (Bioorg Med Chem Lett, 2009).

The nature of test [1]: Selectivity for human recombinant DOR over mu opioid receptor.
Test [2] can be described thus: Selectivity for human recombinant DOR over kappa opioid receptor.
For the next test, the species on record is Homo sapiens. Put plainly: Selectivity for human recombinant DOR over human ERG.

Take `Nc1ccnc(N2CCC(n3c(=O)n(Cc4ccccc4)c4cccnc43)CC2)c1`: the fold change (FC) in test [1] and in test [2] was 50 throughout.
As to `COc1ccc(-n2c(=O)n(C3CCN(c4cc(N)ccn4)CC3)c3ncccc32)cc1`, the fold change (FC) in test [1] and in test [2] was 50 each time.
For the compound `COc1ccc(C(=O)N(c2cc(C)ccn2)C2CCN(c3cc(N)ccn3)CC2)cc1`, in the test filed under Homo sapiens, the fold change (FC) amounted to 500.
Turning to `Nc1ccnc(N2CCC(n3c(=O)n(-c4ccccc4)c4cccnc43)CC2)c1`, the fold change (FC) in test [1] and in test [2] was 50 each time.
As for `Nc1ccnc(N2CCC(n3c(=O)n(CC4CC4)c4cccnc43)CC2)c1`, the fold change (FC) in test [1] and in test [2] was 50 each time.
